Laboratory results reported in paper PMC11262537, “Cell-Penetrating Chaperone Nuc1 for Small- and Large-Molecule Delivery Into Retinal Cells and Tissues” (Investigative Ophthalmology & Visual Science, 2024).

Tested on: MNU-induced retinal apoptosis (ONL)
Experiment: N-methyl-nitrosourea (MNU)-induced retinal apoptosis, TUNEL
Format: in vivo, C57BL/6J mice
Settings: 1.4 µg XIAP (± 0.4 µg Nuc1) intravitreal 4 h before 50 mg/kg MNU i.p., eyes harvested after 24 h

## XIAP: recombinant human X-linked inhibitor of apoptosis protein
  reduction in number of TUNEL-positive cells relative to MNU (untreated MNU-injected mice): 2.2%
